Patent publication US6998423B2, “Prevention of loss and restoration of bone mass by certain prostaglandin agonists” (priority 1996, dated 2006)

The chains behind the UniProt entries cited, without tags or fusion partners. Where a name states a change or a piece, a line headed by the entry shows the natural chain unless it says otherwise.
UniProt P43116: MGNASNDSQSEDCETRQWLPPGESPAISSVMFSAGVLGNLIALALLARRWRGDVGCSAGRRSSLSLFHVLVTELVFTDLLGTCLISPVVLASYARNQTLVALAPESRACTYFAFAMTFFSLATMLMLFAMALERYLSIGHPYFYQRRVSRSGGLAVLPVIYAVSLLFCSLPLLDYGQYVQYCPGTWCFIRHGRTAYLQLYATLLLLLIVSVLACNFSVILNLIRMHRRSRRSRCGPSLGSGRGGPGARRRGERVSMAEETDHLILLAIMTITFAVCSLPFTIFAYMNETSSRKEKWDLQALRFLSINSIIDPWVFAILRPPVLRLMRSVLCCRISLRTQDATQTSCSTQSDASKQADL

Biological target: human EP2 receptor (Homo sapiens, UniProt P43116)
Experiment: Scatchard analysis of specific [3-H]PGE2 binding in 293-S cell line stably overexpressing recombinant human EP2 receptor
Settings: read-out: Kd for PGE2 (EP2), 293-S/EP2 line selected for compound screening, approximately 338,400 receptors per cell

CCCCC[C@H](O)/C=C/[C@H]1[C@H](O)CC(=O)[C@@H]1C/C=C\CCCC(=O)O [PGE2, prostaglandin E2]
pKd: 7.92

pKd: −log10 of the molar value.
